Measured values reported in ChEMBL document CHEMBL5346881 (Eur J Med Chem, 2023).

Assay: Acute toxicity in ip dosed CB17 SCID mouse assessed as lethal dose
Type: organism-based
Conditions: in vivo

**Q.** With O=C(O)[C@@H](O)COc1ccc(N(CCCl)CCCl)cc1 as the molecule, how does the LD10 read?
**A.** 18 mg/kg

**Q.** What about the LD50 of the same molecule?
**A.** 62 mg/kg
